According to publication PMC7723054:
The other results are listed elsewhere or left out.

T1: LIN28A (human?, UniProt Q9H9Z2 1-209)
T1 sequence: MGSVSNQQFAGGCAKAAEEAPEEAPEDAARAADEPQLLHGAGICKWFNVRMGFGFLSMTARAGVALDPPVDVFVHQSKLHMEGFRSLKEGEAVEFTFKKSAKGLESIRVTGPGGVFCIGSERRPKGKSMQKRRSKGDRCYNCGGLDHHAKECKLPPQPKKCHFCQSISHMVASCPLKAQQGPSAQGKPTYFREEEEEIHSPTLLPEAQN

T2: CIRBP (Homo sapiens, UniProt Q14011 1-172)
T2 sequence: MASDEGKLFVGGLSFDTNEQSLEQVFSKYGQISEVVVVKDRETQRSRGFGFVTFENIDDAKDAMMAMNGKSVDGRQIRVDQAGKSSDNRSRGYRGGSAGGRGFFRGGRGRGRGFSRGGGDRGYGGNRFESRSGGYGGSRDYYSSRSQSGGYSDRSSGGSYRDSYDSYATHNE

T3: DHX36 (Homo sapiens, UniProt Q9H2U1 1-1008)
T3 sequence: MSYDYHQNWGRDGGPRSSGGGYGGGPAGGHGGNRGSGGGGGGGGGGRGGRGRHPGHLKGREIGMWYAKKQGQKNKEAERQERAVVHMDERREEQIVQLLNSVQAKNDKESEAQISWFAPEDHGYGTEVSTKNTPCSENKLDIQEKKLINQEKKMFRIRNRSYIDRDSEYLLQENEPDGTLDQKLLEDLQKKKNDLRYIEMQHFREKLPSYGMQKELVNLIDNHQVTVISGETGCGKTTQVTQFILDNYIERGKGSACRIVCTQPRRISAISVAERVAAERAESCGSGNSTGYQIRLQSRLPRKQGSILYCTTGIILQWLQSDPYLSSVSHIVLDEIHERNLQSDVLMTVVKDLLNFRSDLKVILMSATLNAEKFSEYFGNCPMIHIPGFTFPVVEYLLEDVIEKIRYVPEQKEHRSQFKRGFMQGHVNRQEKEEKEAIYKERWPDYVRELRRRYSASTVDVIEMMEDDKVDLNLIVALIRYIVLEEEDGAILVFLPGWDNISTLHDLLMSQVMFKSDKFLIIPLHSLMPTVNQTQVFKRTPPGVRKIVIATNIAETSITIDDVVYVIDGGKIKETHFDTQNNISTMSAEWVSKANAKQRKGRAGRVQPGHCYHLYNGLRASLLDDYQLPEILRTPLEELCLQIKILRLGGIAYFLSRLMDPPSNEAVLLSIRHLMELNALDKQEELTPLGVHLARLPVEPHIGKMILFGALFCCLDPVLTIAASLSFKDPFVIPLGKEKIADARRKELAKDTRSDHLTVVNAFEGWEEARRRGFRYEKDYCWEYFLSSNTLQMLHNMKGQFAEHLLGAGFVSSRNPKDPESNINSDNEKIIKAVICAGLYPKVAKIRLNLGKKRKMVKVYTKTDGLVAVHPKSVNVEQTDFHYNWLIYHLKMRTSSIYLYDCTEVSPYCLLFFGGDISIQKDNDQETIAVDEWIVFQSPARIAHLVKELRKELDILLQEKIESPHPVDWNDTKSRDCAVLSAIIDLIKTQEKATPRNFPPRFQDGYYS

B1: r(CGG)16: (structured_RNA)
RNA: GGGACGGCCUGAUGAUCACACGAUUCACGGUGUACGAAGUUUCAGCCGGCGGCGGCGGCGGCGGCGGCGGCGGCGGCGGCGGCGGCGGCGGCGGGCUGAAGCUUCGUGCAC
B2: hsa-mir-4519 (structured_RNA)
RNA: GGGAAAGAAUAGUUGCCCAGCAUCGACUGGUGUACGAAGUUUCAGCGCUGCACUGUCUCCGUCUGCGGGCUGAAGCUUCGUGCAC
B3: NEAT1_ParasoR_ID49 (structured_RNA)
RNA: GGGAAAUGGUUCUUGGCUAUGGAACCCAGGUGUACGAAGUUUCAGCCCAUGGCUAAUGUUAUUAUAUUAUGUGCUAUUGUAAUGGAUGGGGCUGUGGGCUGAAGCUUCGUGCAC
B4: PARIS_ID28 (structured_RNA)
RNA: GGGAAGAGUUCCCCAAACGGCAAAAUGAGGUGUACGAAGUUUCAGCAGUCCAUGGCUAAUGUUAUUAUAUUAUGUGCUAUUGUAAUGGAUGGGGCUGUGGAGUGCUGAAGCUUCGUGCAC
B5: hsa-mir-4724 (structured_RNA)
RNA: GGGAAGGAUAAUUCCGAGCAUUAGUUGAGGUGUACGAAGUUUCAGCGAGCUUCGUGUACAUUAUCUAUUAGAAAAUGAAGUACGCUGAAGCUUCGUGCAC
B6: hsa-mir-527 (structured_RNA)
RNA: GGGAAAUCCGCACGGAGCUACACGAUGCGGUGUACGAAGUUUCAGCUUUCUGUUGUCUAAAAGAAAAGAAAGCUGAAGCUUCGUGCAC
B7: hsa-mir-1226 (structured_RNA)
RNA: GGGCAAAAGCAAGAACCGUAAGAGUUAAGGUGUACGAAGUUUCAGCAUGGGGCAGCUGGGAUGGUCCAAAAGGGUGGCCUCAGCUGAAGCUUCGUGCAC
B8: hsa-mir-7850 (structured_RNA)
RNA: GGGACUGAGGUAAUUCCAGGACUAACACGGUGUACGAAGUUUCAGCCUGGGUCCUCUGUGCAGGGUCUUACCCAGGCUGAAGCUUCGUGCAC
B9: hsa-mir-6868 (structured_RNA)
RNA: GGGACACCAAAGACUUAGGACCUCUCACGGUGUACGAAGUUUCAGCGCAGCAGGCACCUGCUUCCGCUGAAGCUUCGUGCAC
B10: hsa-mir-337 (structured_RNA)
RNA: GGGAACCGCUACUGGGUCUACCUGGAACGGUGUACGAAGUUUCAGCGGAGUUGAUGCACAGUUAUCCAGCUCCGCUGAAGCUUCGUGCAC
B11: hsa-mir-4486 (structured_RNA)
RNA: GGGAAUAUGGUCGGGUGGCGGGAAAAUGGGUGUACGAAGUUUCAGCGGCAUCUAGCACAGGCGGUAGAUGCUGCUGAAGCUUCGUGCAC

molecular target: U1A (Homo sapiens, UniProt P09012); assay: FOREST: bead pull-down of RNA structure library v1, barcode microarray; U1A/LIN28A: 20 mM HEPES pH 7.5, 80 mM KCl, 20 mM NaCl, 10% glycerol, 2 mM DTT, 0.1 ug/uL BSA, 4 C; BG4/CIRBP/DHX36: 10 mM Tris-HCl pH 7.5, 100 mM KCl (or LiCl),; high values mean tight binding

| Binder | binding signal |
| --- | --- |
| B1 | 0.605 z-score |
| B2 | 0.592 z-score |
| B3 | 0.586 z-score |
| B4 | 0.574 z-score |
| B5 | 0.577 z-score |
| B6 | 0.575 z-score |
| B7 | 0.609 z-score |
| B8 | 0.618 z-score |
| B9 | 0.602 z-score |
| B10 | 0.577 z-score |
| B11 | 0.575 z-score |

molecular target: T1, LIN28A; assay: as above

| Binder | binding signal |
| --- | --- |
| B1 | 0.104 z-score |
| B2 | 0.581 z-score |
| B3 | 1.06 z-score |
| B4 | 0.98 z-score |
| B5 | 0.795 z-score |
| B6 | -0.0587 z-score |
| B7 | 1.37 z-score |
| B8 | -1.26 z-score |
| B9 | 0.0774 z-score |
| B10 | -0.2 z-score |
| B11 | 0.494 z-score |

molecular target: T2, CIRBP; assay: as above

| Binder | binding signal |
| --- | --- |
| B1 | -1.58 z-score |
| B2 | -0.125 z-score |
| B3 | 0.625 z-score |
| B4 | 0.0645 z-score |
| B5 | 0.947 z-score |
| B6 | -1.07 z-score |
| B7 | -0.967 z-score |
| B8 | -1.84 z-score |
| B9 | 0.717 z-score |
| B10 | 0.354 z-score |
| B11 | 1.37 z-score |

molecular target: T3, DHX36; assay: as above

| Binder | binding signal |
| --- | --- |
| B1 | 2.2 z-score |
| B2 | 0.904 z-score |
| B3 | 0.344 z-score |
| B4 | -0.386 z-score |
| B5 | 0.96 z-score |
| B6 | -0.318 z-score |
| B7 | 1.19 z-score |
| B8 | -2.04 z-score |
| B9 | 0.219 z-score |
| B10 | -0.55 z-score |
| B11 | 0.981 z-score |
